Measurements from patent US4938956A, “Synergistic immunostimulating composition and method” (priority 1987, dated 1990).

Legend:
[1] = system: Bovine gut lamina proprial lymphocytes; assay: In vitro proliferation ([3]H-thymidine) of bovine gut lamina proprial lymphocytes; type: cell-based; settings: for Mean Counts Per Minute for Each Triplicate: FK-565 0 μg/ml
[2] = system: Murine Spleen Cells; assay: Primary in vitro immunization of murine spleen cells (Jerne plaque-forming-cell assay, sheep erythrocyte antigen); type: cell-based, mice; settings: for PFC/ml / % POS: ShE +++; for % POS: percentage of positive control
[3] = system: spleen cells from OVA-FITC immunized mice; assay: In vitro proliferation ([3]H-thymidine) of spleen cells from OVA-FITC immunized mice; type: cell-based; settings: for Mean Cunts Per Minute for Each Triplicate: FK-56 0 μg/ml
[4] = system: C57BL/6 mice spleen cells (responder population); type: cell-based

IL-2 was tested. Which proliferation ([1]; 3.75 ng/ml rIL-2) did it give?
The proliferation was “nor did they respond”.

And the proliferation ([1]; 30 ng/ml rIL-2)?
Its proliferation is “maximal proliferation even in the absence of FK-565”.

What about the proliferation ([1]; 15 or 30 ng/ml rIL-2) of the same substance?
The proliferation was “proliferation occurs”.

What about the “Mean Counts Per Minute for Each Triplicate” value ([1]; IL-2 15 ng/ml) of the same substance?
Its value is 22326 ± 4118 CPM.

What about the “Mean Counts Per Minute for Each Triplicate” value ([1]; IL-2 30 ng/ml) of the same substance?
The value was 97502 ± 1331 CPM.

What about the “formation of plaque-forming-cells (PFCs)” value ([2]; added to splenocyte cultures at initiation) of the same substance?
Its value is “augmented the formation of plaque-forming-cells (PFCs) in a dose dependent fashion”.

And the PFC/ml ([2]; rIL-2 0.1 ng/ml, day 3)?
Its PFC/ml is 160 PFC/ml.

And the “% POS” value ([2]; rIL-2 0.1 ng/ml, day 3)?
Its value is 128 % POS.

What about the PFC/ml ([2]; rIL-2 0.1 ng/ml, day 4) of the same substance?
The PFC/ml was 3990 PFC/ml.

What about the “% POS” value ([2]; rIL-2 0.1 ng/ml, day 4) of the same substance?
The value was 130 % POS.

What about the PFC/ml ([2]; rIL-2 0.1 ng/ml, day 5) of the same substance?
The PFC/ml was 1975 PFC/ml.

What about the “% POS” value ([2]; rIL-2 0.1 ng/ml, day 5) of the same substance?
Its value is 56 % POS.

And the PFC/ml ([2]; rIL-2 1 ng/ml, day 3)?
The PFC/ml was 930 PFC/ml.

And the “% POS” value ([2]; rIL-2 1 ng/ml, day 3)?
The value was 744 % POS.

And the PFC/ml ([2]; rIL-2 1 ng/ml, day 4)?
Its PFC/ml is 7720 PFC/ml.

And the “% POS” value ([2]; rIL-2 1 ng/ml, day 4)?
The value was 252 % POS.

And the PFC/ml ([2]; rIL-2 1 ng/ml, day 5)?
The PFC/ml was 5125 PFC/ml.

And the “% POS” value ([2]; rIL-2 1 ng/ml, day 5)?
Its value is 145 % POS.

What about the PFC/ml ([2]; rIL-2 10 ng/ml, day 3) of the same substance?
Its PFC/ml is 1840 PFC/ml.

And the “% POS” value ([2]; rIL-2 10 ng/ml, day 3)?
Its value is 1472 % POS.

And the PFC/ml ([2]; rIL-2 10 ng/ml, day 4)?
Its PFC/ml is 9380 PFC/ml.

What about the “% POS” value ([2]; rIL-2 10 ng/ml, day 4) of the same substance?
Its value is 307 % POS.

What about the PFC/ml ([2]; rIL-2 10 ng/ml, day 5) of the same substance?
Its PFC/ml is 7200 PFC/ml.

What about the “% POS” value ([2]; rIL-2 10 ng/ml, day 5) of the same substance?
The value was 204 % POS.

What about the “Mean Cunts Per Minute for Each Triplicate” value (from here on “Mean Cunts Per Minute”) ([3]; IL-2 0.3 μg/ml, OVA-FITC 0 μg/ml) of the same substance?
The value was 15458 ± 788 CPM.

And the “Mean Cunts Per Minute” value ([3]; IL-2 0.3 μg/ml, OVA-FITC 2.5 μg/ml)?
Its value is 40728 ± 2191 CPM.

What about the “Mean Cunts Per Minute” value ([3]; IL-2 0.3 μg/ml, OVA-FITC 5.0 μg/ml) of the same substance?
Its value is 48726 ± 1660 CPM.

What about the “Mean Cunts Per Minute” value ([3]; IL-2 0.3 μg/ml, OVA-FITC 10.0 μg/ml) of the same substance?
Its value is 69954 ± 2933 CPM.

What about the “Mean Cunts Per Minute” value ([3]; IL-2 0.6 μg/ml, OVA-FITC 0 μg/ml) of the same substance?
Its value is 16645 ± 127 CPM.

What about the “Mean Cunts Per Minute” value ([3]; IL-2 0.6 μg/ml, OVA-FITC 2.5 μg/ml) of the same substance?
The value was 44010 ± 170 CPM.

And the “Mean Cunts Per Minute” value ([3]; IL-2 0.6 μg/ml, OVA-FITC 5.0 μg/ml)?
The value was 51233 ± 1926 CPM.

What about the “Mean Cunts Per Minute” value ([3]; IL-2 0.6 μg/ml, OVA-FITC 10.0 μg/ml) of the same substance?
Its value is 45687 ± 3211 CPM.

What about the “increase in CPM” value ([3]; increasing concentrations of rIL-2 added to cultures, no antigen) of the same substance?
Its value is 8 fold.

What about the “increase over background CPM” value ([3]; rIL-2 added to cultures containing 5 μg/ml OVA-FITC) of the same substance?
The value was 2.5 fold.

And the “effect on one-way MLR” value [4]?
The value was “little, if any, effect”.
